Measured values from PubChem BioAssay AID492967 (ICCB-Longwood Screening Facility, Harvard Medical School, 2010).
This is a selection; strong and weak results do not stand in their true shares. Some results for these compounds are left out of this collection, so the calls shown say nothing about other tests. Calls of active or inactive are those of the source. Cut-off read from the data, not from the text of the source: active = z-score mostly below about -2.9 (no sharp cut-off); inactive = mostly above about -1.9.

Each compound was assayed on CapD gamma-glutamyltranspeptidase (Bacillus anthracis Ames Ancestor) (assay: Bacillus anthracis CapD inhibitors, primary screen, biochemical, fluorescence intensity (AID 492967)). Settings: purified CapD enzyme, fluorescence intensity read-out; active compounds read low.

Compound | z-score
COc1ccc(OC)c(C=C(C#N)C#N)c1 | inactive: 0.225
O=C(OC1CN2CCC1CC2)C(CO)(c1ccccc1)c1ccccc1 (configuration not stated) | inactive: 0.21
